Laboratory results from PubChem BioAssay (Tox21).
Where “and” joins values, the source holds several entries; their conditions need not be identical. Identical values can stand only once. This is a selection; strong and weak results do not stand in their true shares. Records with an inconclusive call do not appear. Calls of active or inactive are those of the source. Unless noted, calls follow the shape of the full dose curve.

Chains of the proteins cited; added tags and fusions are not shown. Lines headed by an entry give the natural chain unless they say otherwise; changes in a name come on top.
UniProt P10275: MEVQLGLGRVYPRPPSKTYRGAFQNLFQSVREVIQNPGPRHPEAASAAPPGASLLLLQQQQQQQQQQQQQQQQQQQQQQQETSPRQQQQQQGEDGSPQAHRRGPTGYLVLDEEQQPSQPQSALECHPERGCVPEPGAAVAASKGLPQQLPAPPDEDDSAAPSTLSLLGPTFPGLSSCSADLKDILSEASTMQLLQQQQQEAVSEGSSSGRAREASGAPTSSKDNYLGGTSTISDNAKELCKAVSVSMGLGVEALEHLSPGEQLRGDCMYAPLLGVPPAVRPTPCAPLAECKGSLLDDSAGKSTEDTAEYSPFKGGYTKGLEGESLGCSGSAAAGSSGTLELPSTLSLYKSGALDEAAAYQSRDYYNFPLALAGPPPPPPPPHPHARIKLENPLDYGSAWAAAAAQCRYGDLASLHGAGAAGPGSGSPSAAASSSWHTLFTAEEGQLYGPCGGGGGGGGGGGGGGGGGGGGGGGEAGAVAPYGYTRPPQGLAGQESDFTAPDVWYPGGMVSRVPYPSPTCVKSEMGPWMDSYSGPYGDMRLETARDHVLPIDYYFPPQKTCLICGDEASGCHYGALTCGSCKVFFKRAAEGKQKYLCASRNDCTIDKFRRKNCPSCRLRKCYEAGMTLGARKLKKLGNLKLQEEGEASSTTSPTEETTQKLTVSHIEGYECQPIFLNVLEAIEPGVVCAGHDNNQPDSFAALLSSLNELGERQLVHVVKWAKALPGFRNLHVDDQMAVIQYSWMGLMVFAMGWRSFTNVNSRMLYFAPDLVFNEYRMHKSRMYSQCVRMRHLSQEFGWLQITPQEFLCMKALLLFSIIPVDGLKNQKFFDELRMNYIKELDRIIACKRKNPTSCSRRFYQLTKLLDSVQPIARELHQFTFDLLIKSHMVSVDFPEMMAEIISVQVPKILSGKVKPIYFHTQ
UniProt P03372, whole entry, looked up: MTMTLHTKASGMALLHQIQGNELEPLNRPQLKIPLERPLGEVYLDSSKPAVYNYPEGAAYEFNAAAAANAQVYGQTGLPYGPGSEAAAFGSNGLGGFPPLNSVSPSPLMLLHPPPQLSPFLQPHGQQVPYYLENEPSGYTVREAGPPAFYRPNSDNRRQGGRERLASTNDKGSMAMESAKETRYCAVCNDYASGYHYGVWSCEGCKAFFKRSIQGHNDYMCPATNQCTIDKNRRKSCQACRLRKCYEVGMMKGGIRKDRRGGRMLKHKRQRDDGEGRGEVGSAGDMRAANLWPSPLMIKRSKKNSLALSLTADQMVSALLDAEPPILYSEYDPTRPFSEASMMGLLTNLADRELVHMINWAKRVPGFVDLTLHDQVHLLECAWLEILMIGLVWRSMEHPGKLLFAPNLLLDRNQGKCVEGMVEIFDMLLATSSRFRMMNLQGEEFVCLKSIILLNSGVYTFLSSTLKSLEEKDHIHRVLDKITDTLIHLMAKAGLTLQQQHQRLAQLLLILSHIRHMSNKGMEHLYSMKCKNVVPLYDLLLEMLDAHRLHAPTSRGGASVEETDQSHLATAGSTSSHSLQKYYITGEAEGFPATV
UniProt P06401: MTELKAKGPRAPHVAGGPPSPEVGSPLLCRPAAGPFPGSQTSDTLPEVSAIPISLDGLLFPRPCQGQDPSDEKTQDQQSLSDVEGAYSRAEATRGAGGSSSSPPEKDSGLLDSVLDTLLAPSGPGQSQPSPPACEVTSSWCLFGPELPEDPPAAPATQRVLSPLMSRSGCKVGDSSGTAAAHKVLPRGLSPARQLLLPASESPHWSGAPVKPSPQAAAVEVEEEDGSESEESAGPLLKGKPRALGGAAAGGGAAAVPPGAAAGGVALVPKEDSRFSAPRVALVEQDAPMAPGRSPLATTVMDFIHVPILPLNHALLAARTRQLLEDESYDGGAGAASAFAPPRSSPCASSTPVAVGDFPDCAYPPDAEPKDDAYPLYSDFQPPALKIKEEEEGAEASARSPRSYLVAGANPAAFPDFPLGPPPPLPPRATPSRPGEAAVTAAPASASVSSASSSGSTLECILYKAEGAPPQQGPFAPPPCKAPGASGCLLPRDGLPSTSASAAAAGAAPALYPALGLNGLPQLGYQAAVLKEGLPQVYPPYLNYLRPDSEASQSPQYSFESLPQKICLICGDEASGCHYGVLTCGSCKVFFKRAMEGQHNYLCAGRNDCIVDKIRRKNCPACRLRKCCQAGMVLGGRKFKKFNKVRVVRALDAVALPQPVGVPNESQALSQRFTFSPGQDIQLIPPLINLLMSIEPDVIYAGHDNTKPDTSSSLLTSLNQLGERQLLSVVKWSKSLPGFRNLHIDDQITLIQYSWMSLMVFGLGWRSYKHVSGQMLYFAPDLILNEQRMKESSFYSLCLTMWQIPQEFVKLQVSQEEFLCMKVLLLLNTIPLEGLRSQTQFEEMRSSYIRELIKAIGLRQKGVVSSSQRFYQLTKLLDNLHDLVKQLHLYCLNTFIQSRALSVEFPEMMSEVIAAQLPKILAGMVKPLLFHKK
UniProt P34981: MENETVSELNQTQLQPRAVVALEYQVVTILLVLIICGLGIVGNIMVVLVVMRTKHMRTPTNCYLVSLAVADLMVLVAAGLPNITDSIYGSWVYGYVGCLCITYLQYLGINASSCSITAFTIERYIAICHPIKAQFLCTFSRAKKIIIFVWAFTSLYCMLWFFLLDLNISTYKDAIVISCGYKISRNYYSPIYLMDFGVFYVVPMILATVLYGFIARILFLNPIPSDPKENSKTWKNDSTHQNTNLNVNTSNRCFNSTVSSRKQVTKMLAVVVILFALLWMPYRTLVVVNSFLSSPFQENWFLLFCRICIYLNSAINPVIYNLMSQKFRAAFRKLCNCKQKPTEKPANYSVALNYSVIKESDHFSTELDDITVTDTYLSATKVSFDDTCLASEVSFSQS
UniProt O75469: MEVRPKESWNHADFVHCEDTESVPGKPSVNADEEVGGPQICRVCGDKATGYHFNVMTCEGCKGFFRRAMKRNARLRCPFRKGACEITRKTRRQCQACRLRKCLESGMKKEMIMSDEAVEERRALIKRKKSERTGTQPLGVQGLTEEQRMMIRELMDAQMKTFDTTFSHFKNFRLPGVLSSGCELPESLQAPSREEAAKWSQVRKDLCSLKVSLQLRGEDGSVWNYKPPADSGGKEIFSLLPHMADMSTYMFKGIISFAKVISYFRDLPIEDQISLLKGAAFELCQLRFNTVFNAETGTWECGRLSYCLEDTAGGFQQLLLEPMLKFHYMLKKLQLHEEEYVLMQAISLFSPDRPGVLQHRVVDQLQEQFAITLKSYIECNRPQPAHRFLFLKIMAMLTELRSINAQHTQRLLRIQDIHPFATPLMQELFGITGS
UniProt P22303: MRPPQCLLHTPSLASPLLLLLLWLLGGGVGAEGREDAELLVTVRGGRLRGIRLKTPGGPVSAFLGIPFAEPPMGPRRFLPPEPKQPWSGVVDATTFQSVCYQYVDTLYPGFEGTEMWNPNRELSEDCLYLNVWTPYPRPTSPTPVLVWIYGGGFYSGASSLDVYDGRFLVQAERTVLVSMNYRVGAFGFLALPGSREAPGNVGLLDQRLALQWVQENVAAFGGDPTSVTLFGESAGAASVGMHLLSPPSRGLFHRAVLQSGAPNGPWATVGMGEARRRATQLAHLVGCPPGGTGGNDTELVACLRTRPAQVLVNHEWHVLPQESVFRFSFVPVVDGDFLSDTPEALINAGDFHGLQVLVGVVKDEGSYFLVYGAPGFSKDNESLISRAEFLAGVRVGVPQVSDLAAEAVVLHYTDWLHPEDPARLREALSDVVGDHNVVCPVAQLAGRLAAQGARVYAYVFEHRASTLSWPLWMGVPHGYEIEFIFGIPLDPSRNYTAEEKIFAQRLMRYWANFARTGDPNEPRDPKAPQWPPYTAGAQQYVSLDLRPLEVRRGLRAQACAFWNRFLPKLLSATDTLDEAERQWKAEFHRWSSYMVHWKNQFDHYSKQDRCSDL
UniProt P10635, whole entry, looked up: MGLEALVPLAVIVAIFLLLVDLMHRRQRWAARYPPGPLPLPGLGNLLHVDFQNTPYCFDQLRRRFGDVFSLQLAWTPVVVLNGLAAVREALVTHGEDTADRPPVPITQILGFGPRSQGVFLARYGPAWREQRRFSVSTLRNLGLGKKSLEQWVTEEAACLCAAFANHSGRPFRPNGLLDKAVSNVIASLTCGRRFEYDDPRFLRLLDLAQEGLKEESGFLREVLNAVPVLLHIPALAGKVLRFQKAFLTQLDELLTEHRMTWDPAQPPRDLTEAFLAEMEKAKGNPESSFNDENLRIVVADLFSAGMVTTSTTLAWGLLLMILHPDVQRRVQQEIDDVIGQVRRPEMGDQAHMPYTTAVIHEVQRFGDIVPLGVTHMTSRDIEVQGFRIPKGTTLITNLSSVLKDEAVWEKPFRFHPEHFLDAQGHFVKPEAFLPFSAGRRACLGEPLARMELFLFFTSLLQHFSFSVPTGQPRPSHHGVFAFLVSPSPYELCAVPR
UniProt P16473, whole entry, looked up: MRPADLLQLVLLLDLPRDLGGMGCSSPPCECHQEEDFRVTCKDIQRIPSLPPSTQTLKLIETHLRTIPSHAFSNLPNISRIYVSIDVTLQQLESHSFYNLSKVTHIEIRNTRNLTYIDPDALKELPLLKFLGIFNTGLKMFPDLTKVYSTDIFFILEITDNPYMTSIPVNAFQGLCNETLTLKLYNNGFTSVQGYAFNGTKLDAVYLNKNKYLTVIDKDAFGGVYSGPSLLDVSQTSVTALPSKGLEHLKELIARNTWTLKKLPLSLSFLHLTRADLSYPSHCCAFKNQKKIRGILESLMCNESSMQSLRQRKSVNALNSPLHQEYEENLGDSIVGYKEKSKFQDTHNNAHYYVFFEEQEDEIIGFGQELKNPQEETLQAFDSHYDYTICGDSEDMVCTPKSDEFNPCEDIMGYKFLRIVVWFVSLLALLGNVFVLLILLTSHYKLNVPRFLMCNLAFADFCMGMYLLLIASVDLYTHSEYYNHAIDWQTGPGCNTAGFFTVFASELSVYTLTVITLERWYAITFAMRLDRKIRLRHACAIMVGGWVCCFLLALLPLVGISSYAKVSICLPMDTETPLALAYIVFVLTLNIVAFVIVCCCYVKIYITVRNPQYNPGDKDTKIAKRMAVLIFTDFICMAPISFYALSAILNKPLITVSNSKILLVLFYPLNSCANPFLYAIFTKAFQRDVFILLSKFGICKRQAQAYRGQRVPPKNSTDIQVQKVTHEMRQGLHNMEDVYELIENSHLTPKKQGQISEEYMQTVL

Experiments:
[1] = biological target: Androgen receptor (Homo sapiens) (UniProt P10275); assay: qHTS assay to identify small molecule agonists of the androgen receptor (AR) signaling pathway in the presence of an antagonist (AID 1259381); settings: MDA-kb2 MMTV-luciferase, AR agonist + nilutamide, 16 h; at 92.4 µM (top of the series); also: nearly all actives have a fitted effect of over 15% in size
[2] = biological target: Estrogen receptor (Homo sapiens) (UniProt P03372); assay: qHTS assay to identify small molecule agonists of the estrogen receptor alpha (ER-alpha) signaling pathway in the presence of an antagonist (AID 1259383); settings: VM7Luc4E2 cells, ERE-luciferase, +ICI-182,780, 22 h; at 92.4 µM (top of the series) unless noted; also: top concentration of the series differs between compounds; nearly all actives have a fitted effect of over 15% in size
[3] = qHTS assay to identify small molecule agonists or antagonists of the thyroid stimulating hormone receptor (TSHR) signaling pathway - wild type cell line counter screen (AID 1259384); settings: HEK293 wild type, cAMP HTRF counter-screen, hits give high values; at 92.4 µM (top of the series) unless noted
How it was run: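 Wild-type Hek293 cells, 800/well, 18 h at 37C, then compound with Ro20-1724 for 30 min RT. cAMP by HTRF (cAMP-d2/anti-cAMP cryptate), 1 h RT, fluorescence read. 15 concentrations, triplicates.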

[4] = qHTS assay to identify small molecule agonists of the estrogen receptor alpha (ER-alpha) signaling pathway in the presence of an antagonist - cell viability counter screen (AID 1259386; active = well fitted curve in the direction sought with a large enough effect in the repeat runs; an effect the other way counts as inactive or inconclusive; also: nearly all actives have a fitted effect of over 30% in size; also: potency is read from the fitted curve at half-maximal effect)
How it was run: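 Compounds tested at 15 concentrations for 22 h at 37C alongside 10.0nM (final) ICI-182,780 antagonist, in VM7Luc4E2 cells grown in phenol red-free, charcoal-stripped medium. Viability read by CellTiter-Fluor fluorescence after 1 h reagent incubation.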

[5] = biological target: Progesterone receptor (Homo sapiens) (UniProt P06401); assay: qHTS assay to identify small molecule antagonists of the progesterone receptor (PR) signaling pathway (AID 1346795; active = well fitted inhibition curve with a large enough effect in the signal ratio in the repeat runs, not every such curve was filed as active; the % refers to the signal ratio; also: potency is read from the fitted curve at half-maximal effect)
How it was run: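 PR-UAS-bla HEK293T cells with beta-lactamase reporter under UAS control, in 2% charcoal-stripped FBS, treated with compounds plus 1 nM promegestone (R5020, final) for 16 hr at 37C. Read-out: FRET beta-lactamase substrate fluorescence after 2 hr at room temperature.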

[6] = qHTS assay to identify small molecule agonists of the progesterone receptor (PR) signaling pathway - cell viability counter screen (AID 1346799); also: nearly all actives have a fitted effect of over 45% in size; also: potency is read from the fitted curve at half-maximal effect
How it was run: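 Counter screen in the PR-UAS-bla HEK293T wells (2% charcoal-stripped FBS, 16 h compound exposure at 37 C) after the bla read. CellTiter-Glo added, 30 min at room temperature, luminescence read as cell viability.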

[7] = qHTS assay to identify small molecule agonists of the TGF-beta/Smad signaling pathway (AID 1346859; active = well fitted activation curve with a large enough effect in the signal ratio in the repeat runs, not every such curve was filed as active; the % refers to the signal ratio); settings: SBE-bla HEK293T, TGF-beta/Smad beta-lactamase reporter, 5 h; at 76.8 µM (top of the series) unless noted
How it was run: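 SBE-bla HEK293T cells plated overnight, then compound exposure for 5 h at 37 C. Beta-lactamase reporter read with LiveBLAzer B/G FRET substrate after 2 h at room temperature, fluorescence at 405 nm excitation, 460/530 nm emission.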

[8] = biological target: Thyrotropin-releasing hormone receptor (Homo sapiens) (UniProt P34981); assay: qHTS assay to identify small molecule antagonists of the thyrotropin-releasing hormone receptor (TRHR) signaling pathway (AID 1346877; active = well fitted inhibition curve with a large enough effect in the repeat runs, not every such curve was filed as active)
[9] = biological target: Thyrotropin-releasing hormone receptor (Homo sapiens) (UniProt P34981); assay: qHTS assay to identify small molecule agonists of the thyrotropin-releasing hormone receptor (TRHR) signaling pathway (AID 1346891); settings: TRHR-HEK293 calcium fluorescence, agonist mode; at 57.6 µM (top of the series) unless noted;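 also: HEK293 cells expressing TRHR with calcium dye readout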
[10] = Caspase-3/7 induction in HepG2 cells by small molecules, qHTS assay (AID 1346978; active = well fitted curve in the direction sought with a large enough effect in the repeat runs; an effect the other way counts as inactive or inconclusive; also: nearly all actives have a fitted effect of over 15% in size); settings: HepG2 caspase-3/7 activation, Caspase-Glo luminescence, 17 h; at 92.4 µM (top of the series) unless noted
How it was run: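 Wild-type HepG2 cells, 2,000/well, settled 5 hr at 37 C and 5% CO2, then compound-treated for 17 hr; caspase-3/7 activity read by luminescent Caspase-Glo 3/7 after 30 min at room temperature.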

[11] = Caspase-3/7 induction in HepG2 cells by small molecules, qHTS cell viability counter screen (AID 1346981; active = well fitted curve in the direction sought with a large enough effect in the repeat runs; an effect the other way counts as inactive or inconclusive; also: nearly all actives have a fitted effect of over 30% in size; also: potency is read from the fitted curve at half-maximal effect)
How it was run: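 CellTiter-Fluor fluorescence measured viability in the same wells used for Caspase-Glo 3/7. HepG2 (wild type) at 2,000 cells/well were pre-incubated 5 hr, dosed, and given reagent at 16 hr, with 1 hr further at 37C.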

[12] = biological target: Nuclear receptor subfamily 1 group I member 2 (Homo sapiens) (UniProt O75469); assay: Human pregnane X receptor (PXR) small molecule agonists, qHTS assay (AID 1346982; active = well fitted curve in the direction sought with a large enough effect in the repeat runs; an effect the other way counts as inactive or inconclusive; also: nearly all actives have a fitted effect of over 35% in size; also: potency is read from the fitted curve at half-maximal effect)
How it was run: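 Agonist mode: luminescence from ONE-Glo after 24 h compound exposure at 37C in HepG2 cells carrying hPXR-responsive CYP3A4 luciferase, plated in charcoal-stripped serum medium 5 h beforehand.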

[13] = biological target: Acetylcholinesterase (Homo sapiens) (UniProt P22303); assay: Acetylcholinesterase (AChE) small molecule antagonists: colormetric cell-based qHTS assay (AID 1347395); also: nearly all actives have a fitted effect of over 30% in size
How it was run: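 SH-SY5Y cells attached overnight, exposed to compound 30 min at 37 C, then given DTNB/acetylthiocholine; after 90 min at 37 C, colorimetric thiocholine read gives cellular AChE activity.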

[14] = biological target: Acetylcholinesterase (Homo sapiens) (UniProt P22303); assay: Acetylcholinesterase (AChE) small molecule antagonists: enzyme-based qHTS assay (AID 1347397); settings: at 115 µM (top of the series) unless noted; also: nearly all actives have a fitted effect of over 55% in size
How it was run: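 Colorimetric DTNB read-out of thiocholine released from acetylthiocholine by recombinant human AChE (50 mU/mL as dispensed). Compounds were preincubated 30 min at RT before substrate/DTNB addition, with a 10 min RT reaction.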

[15] = biological target: Acetylcholinesterase (Homo sapiens) (UniProt P22303); assay: Acetylcholinesterase (AChE) small molecule antagonists: enzyme-based qHTS assay with human liver microsomes (AID 1347399); settings: Potency: qHTS inhibition; also: nearly all actives have a fitted effect of over 60% in size
How it was run: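 Recombinant human AChE (50 mU/mL in the enzyme mix) and human liver microsomes (0.25 mg/mL final) were preincubated with compound and NADPH (0.25 mg/mL final) for 30 min at 37 C. Acetylthiocholine/DTNB was then added; thiocholine was read colorimetrically after 10 min at room temperature.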

[16] = biological target: Cytochrome P450 2D6 (Homo sapiens) (UniProt P10635); assay: Cytochrome P450 Family 2 Subfamily D Member 6 (CYP2D6) small molecule antagonists: luciferase reporter qHTS assay (AID 1671196; active = well fitted curve in the direction sought with a large enough effect in the repeat runs; an effect the other way counts as inactive or inconclusive; also: nearly all actives have a fitted effect of over 50% in size; also: potency is read from the fitted curve at half-maximal effect)
How it was run: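 CYP2D6 activity was followed as luminescence from its luciferin product after a 1 h NADPH-driven reaction at room temperature. Enzyme-substrate mix and compound were pre-incubated for 10 min, and the signal was read 20 min after adding detection reagent.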

[17] = qHTS assay to identify small molecule agonists of the estrogen receptor beta (ER-beta) signaling pathway - cell viability counter screen (AID 1259380; active = well fitted curve in the direction sought with a large enough effect in the repeat runs; an effect the other way counts as inactive or inconclusive; also: nearly all actives have a fitted effect of over 30% in size); settings: ER-beta-bla HEK293T viability, CellTiter-Glo luminescence, 16 h; at 92.4 µM (top of the series) unless noted
How it was run: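 Cell viability counter screen: CellTiter-Glo luminescence (30 min, room temperature) measured in the same wells as the beta-lactamase readout, after 16 hr compound exposure at 37C of ER-beta-bla HEK293T cells in 2% charcoal-stripped FBS medium.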

[18] = qHTS assay to identify small molecule antagonists of the estrogen receptor beta (ER-beta) signaling pathway - cell viability counter screen (AID 1259382; active = well fitted curve in the direction sought with a large enough effect in the repeat runs; an effect the other way counts as inactive or inconclusive;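 also: HEK293T cells carrying ER-beta-UAS-bla reporter stimulated with estradiol; nearly all actives have a fitted effect of over 55% in size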); settings: ER-beta-UAS-bla HEK293T viability, CellTiter-Glo luminescence, 16 h; at 92.4 µM (top of the series) unless noted
How it was run: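 Cytotoxicity was measured in the same wells by CellTiter-Glo luminescence after 30 min at room temperature. Cells were ER-beta-bla HEK293T in charcoal-stripped serum, given compound together with 1 nM E2 and incubated 16 h at 37C.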

[19] = qHTS assay to identify small molecule antagonists of the progesterone receptor (PR) signaling pathway - cell viability counter screen (AID 1346798; active = well fitted curve in the direction sought with a large enough effect in the repeat runs; an effect the other way counts as inactive or inconclusive; also: nearly all actives have a fitted effect of over 50% in size; also: potency is read from the fitted curve at half-maximal effect)
How it was run: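 PR-UAS-bla HEK293T cells, 3,000/well in 2% charcoal-stripped FBS medium, dosed with compounds plus R5020 agonist and incubated 16 h at 37C. Viability then measured in the same wells by CellTiter-Glo luminescence after 30 min at RT.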

[20] = biological target: Thyrotropin receptor (Homo sapiens) (UniProt P16473); assay: qHTS assay to identify small molecule antagonists of the thyroid stimulating hormone receptor (TSHR) signaling pathway (AID 1259385); settings: TSHR-HEK293 cAMP HTRF, TSH-stimulated antagonist mode; at 92.4 µM (top of the series) unless noted; also: nearly all actives have a fitted effect of over 20% in size
% is scaled to controls: 0 for no effect and ±100 for the full control effect.

SMILES | activation [1] | activation [2] | cAMP activity change [3] | Potency [4] | Potency [5] | Potency [6] | activation [7] | Potency [8] | activation [9] | caspase activation [10] | Potency [11] | Potency [12] | Potency [13] | activity change, negative = inhibition [14] | Potency [15] | Potency [16] | activity change, negative = cytotoxicity [17] | activity change, negative = cytotoxicity [18] | Potency [19] | activity change, negative = inhibition [20]
O=[As]c1ccccc1 (centres undefined) | inactive: -11.2% | inactive: -15.4% | inactive: -2.49% | active: 8.63 µM | active: 0.77 µM | active: 2.73 µM | inactive: -1.58% | inactive | inactive: 16.8% | inactive: -18.2% | active: 0.864 µM | inactive | inactive | inactive: -1.73% | inactive | active: 20 µM | – | – | – | –
COC(=O)Cl | – | inactive: -0.0467% | – | inactive | inactive | inactive | inactive: 1.45% | inactive | inactive: 0.0583% | inactive: 0.204% | inactive | inactive | inactive | inactive: 2.04% | inactive | – | inactive: -1.37% | inactive: 3.73% | inactive | –
N#CSc1ccc([N+](=O)[O-])cc1[N+](=O)[O-] | – | – | inactive: -0.196% | – | – | active: 6.11 µM | inactive: -0.0222% | inactive | inactive: 10.3% | – | – | active: 1.93 µM | – | – | – | – | – | – | active: 6.11 µM | –
CCCCO[P+](=O)OCCCC | inactive: -0.657% and inactive: -0.162% | inactive: -0.986% and inactive: -0.242% | inactive: -0.212% and inactive: 4.73% | inactive | inactive | inactive | – | – | – | inactive: -1.3% and inactive: 0.812% | inactive | inactive | inactive | inactive: -0.277% and inactive: 1.49% | inactive | inactive | inactive: -2.06% and inactive: 1.79% | inactive: 5.05% and inactive: 3.65% | inactive | inactive: -0.882% and inactive: 0.235%
CCCCC(CC)CO[P+](=O)OCC(CC)CCCC (centres undefined) | – | inactive: -0.862% | inactive: -4.07% | inactive | inactive | inactive | inactive: 1.09% | inactive | inactive: -0.189% | inactive: -1.15% | inactive | inactive | inactive | inactive: -0.0611% | inactive | inactive | inactive: 3.98% | inactive: 3.78% | inactive | inactive: -0.587%
Cc1cc([N+](=O)[O-])cc([N+](=O)[O-])c1O | inactive: -9.95% and inactive: -10.1% | – | – | – | inactive | – | inactive: -3.86% | inactive | inactive: 14.5% and inactive: 13.4% | inactive: -9.98% and inactive: -9.9% | – | – | inactive | inactive: 36.5% and inactive: 36.8% | inactive | active: 59.7 µM | inactive: -9.39% | – | – | –
O=P(Cl)(Cl)c1ccccc1 | – | inactive: -0.0118% | inactive: -0.71% | inactive | inactive | inactive | inactive: 1.39% | inactive | inactive: -0.3% | inactive: -0.104% | inactive | inactive | inactive | inactive: -1.29% | inactive | inactive | – | inactive: 3.01% | inactive | inactive: 1.23%
CC(C)CCCCCCCOP(OCCCCCCCC(C)C)Oc1ccccc1 | – | inactive: 1.01% | – | inactive | inactive | inactive | inactive: 2.17% | inactive | inactive: 0.13% | inactive: -0.316% | – | – | inactive | inactive: 1.31% | inactive | inactive | inactive: -1.73% | inactive: -2.06% | inactive | –
